Laboratory results as given in patent publication US20240252686A1 (SKYLINE THERAPEUTICS, published 2024).

Protein sequences, listed by entry. Tags and fused reporters are not part of them. Chains listed by the source or under a name are the forms on record and can include a tag or linker.
UniProt P15692, other isoform, or with tags, fused parts or gaps limits assumed: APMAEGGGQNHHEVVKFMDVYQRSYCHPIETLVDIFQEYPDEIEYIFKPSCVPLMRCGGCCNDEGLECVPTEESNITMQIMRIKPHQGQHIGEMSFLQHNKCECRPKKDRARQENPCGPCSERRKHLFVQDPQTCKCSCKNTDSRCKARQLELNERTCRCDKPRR

Biological target: VEGFA-165 (R&D systems 293-VE/CF) (human) (UniProt P15692)
Experiment: competitive ELISA as in Example 7: inhibition of VEGFR2/KDR Fc binding to coated VEGFA-165

Lucentis (NOVARTIS, SAWE7) (Fab)
IC50: 62.1 nM
